Results published in patent US20070010428A1, “Inhibitors of signal transduction and activator of transcription 3” (priority 2004, published 2007).

Legend:
[1] = molecular target: Stat3 (as in the EMSA of Table 1), P40763; test: EMSA: inhibition of Stat3 dimerization and DNA binding, average of two determinations
[2] = molecular target: Stat3 (as in the EMSA of Table 1), P40763; test: EMSA: IC50 of peptide 1 against IC50 of peptide 2

## YLPQTV (modifications not checked) [Ac-pTyr-Leu-Pro-Gln-Thr-Val-NH2]
[1]
  IC50: 150 nM
[2]
  fold increase in potency against Peptide 2 (Ac-pTyr-Leu-Lys-Thr-Lys-Phe-NH2): > 100 fold
